Experimental data reported in BindingDB's records for doi:10.1021/acs.jmedchem.6b00150 (University of Nebraska Medical Center, 2016).

Sequences of proteins named here, by UniProt entry; tags and fusion partners are left off.
UniProt O60563, whole entry: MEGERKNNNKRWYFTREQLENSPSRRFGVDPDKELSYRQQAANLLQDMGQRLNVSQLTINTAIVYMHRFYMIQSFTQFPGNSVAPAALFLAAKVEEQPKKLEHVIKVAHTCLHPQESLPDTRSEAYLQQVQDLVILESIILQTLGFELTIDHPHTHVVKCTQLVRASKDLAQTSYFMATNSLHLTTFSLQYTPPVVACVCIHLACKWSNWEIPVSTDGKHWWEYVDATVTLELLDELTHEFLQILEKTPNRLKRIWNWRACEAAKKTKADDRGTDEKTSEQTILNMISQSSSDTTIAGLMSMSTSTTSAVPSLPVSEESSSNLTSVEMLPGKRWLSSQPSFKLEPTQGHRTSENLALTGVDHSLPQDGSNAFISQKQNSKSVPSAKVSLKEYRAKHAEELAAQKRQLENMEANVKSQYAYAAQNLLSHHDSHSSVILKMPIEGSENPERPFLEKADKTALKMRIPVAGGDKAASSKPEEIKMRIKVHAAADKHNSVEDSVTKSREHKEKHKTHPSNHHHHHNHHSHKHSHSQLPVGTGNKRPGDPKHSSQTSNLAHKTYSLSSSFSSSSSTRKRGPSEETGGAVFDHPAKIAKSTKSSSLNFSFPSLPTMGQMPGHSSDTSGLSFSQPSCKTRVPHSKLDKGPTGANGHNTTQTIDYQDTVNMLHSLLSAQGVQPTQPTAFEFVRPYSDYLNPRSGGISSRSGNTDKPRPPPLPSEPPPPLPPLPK
UniProt P50750, whole entry: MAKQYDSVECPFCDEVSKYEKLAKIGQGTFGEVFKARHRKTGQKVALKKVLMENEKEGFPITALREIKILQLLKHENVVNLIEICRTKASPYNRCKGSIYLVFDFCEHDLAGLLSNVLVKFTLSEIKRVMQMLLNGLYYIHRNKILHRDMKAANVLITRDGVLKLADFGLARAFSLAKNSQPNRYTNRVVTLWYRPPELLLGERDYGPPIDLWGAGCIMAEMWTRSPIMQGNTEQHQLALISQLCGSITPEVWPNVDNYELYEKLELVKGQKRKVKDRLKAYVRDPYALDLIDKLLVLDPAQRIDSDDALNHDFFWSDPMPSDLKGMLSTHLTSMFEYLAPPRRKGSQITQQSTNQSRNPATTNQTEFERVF

Molecular target: Cyclin-T1/Cyclin-dependent kinase 9 (Homo sapiens, UniProt O60563+P50750)
Assay: Inhibition of CDK9/cyclin T1 (unknown origin) using cdk7tide peptide as substrate

IC50: 3 nM
Structure (SMILES): COc1cc(F)ccc1-c1ccnc(NC(=O)[C@H]2CCC[C@@H](NC(C)=O)C2)c1 [US9067888, 33]
